Reference: patent US10017827B2, “Herbicide-resistant sunflower plants with multiple herbicide resistant alleles of AHASL1 and methods of use” (BASF AGROCHEMICAL PRODUCTS B.V., priority 2007, dated 2018)

Assays:
[1] = tested on: AHAS enzyme, A205V homozygous (B7imi (IMISUN1)); conditions: 50 μM imazamox, Set 2
[2] = tested on: sunflower line B770 (conventional); conditions: 160 gr/ha at V4
[3] = tested on: heterozygous A205V sunflower entries; conditions: 160 g ai/ha imazapyr, 21 DAT
[4] = tested on: sunflower hybrid H5 (L3 × WT, 122/Wild type); conditions: in vivo
[5] = tested on: sunflower line BTK112 (conventional)
[6] = tested on: sunflower line VB141 (high oleic); conditions: 160 gr/ha at V4
[7] = tested on: sunflower hybrids A205V/A205V and A205V/WT; conditions: 160 g ai/ha at R1, 14 DAT
[8] = tested on: sunflower line BTI-OL-M1709; conditions: in vivo
[9] = tested on: sunflower line L1 (A205V); assay: Greenhouse whole-plant response to imazapyr; assay type: in vivo; conditions: 14 DAT
Description: (§1) Experiment was arranged as a randomized block design with a full factorial (sunflower line×treatment) arrangement of treatments and 10 replications.

[10] = tested on: sunflower hybrid H3 (L3 × L2, A205V + A122T); assay: Greenhouse whole-plant response to imazapyr; assay type: in vivo; conditions: 14 DAT
Description: as §1

[11] = tested on: A205V sunflower genotypes (mean of H1, L1, L2); assay: Greenhouse whole-plant response to imazapyr; assay type: in vivo; conditions: 14 DAT
Description: as §1

[12] = tested on: sunflower hybrid H4 (L1 × L4, A205V + A122T); assay: Greenhouse whole-plant response to imazapyr; assay type: in vivo; conditions: 14 DAT
Description: as §1

[13] = tested on: sunflower line L2 (A205V); assay: Greenhouse whole-plant response to imazapyr; assay type: in vivo; conditions: 14 DAT
Description: as §1

[14] = tested on: sunflower hybrid H1 (L1 × L2, A205V); assay: Greenhouse whole-plant response to imazapyr; assay type: in vivo; conditions: 14 DAT
Description: as §1

[15] = tested on: sunflower line BTI-OL-M1511; conditions: in vivo
[16] = tested on: sunflower hybrids carrying at least one allele A122T (A122T/A122T, A122T/A205V, A122/WT); conditions: hybrids with at least one A122T allele; 160 g ai/ha at R1; 14 DAT
[17] = tested on: sunflower line HA445 (high oleic); conditions: 160 gr/ha at V4
[18] = tested on: sunflower line BTI-OL-2201; conditions: in vivo
[19] = tested on: AHAS enzyme, A122T/A205V heterozygous hybrid (IA9 × R733); conditions: 100 μM imazapyr, Set 1
[20] = tested on: sunflower line OB712 (high oleic)

COCc1cnc(C2=NC(C)(C(C)C)C(=O)N2)c(C(=O)O)c1 (centres unmarked) [imazamox] was tested, and the “AHAS activity, % of untreated control” value [1] was 30%.
For CC(C)C1(C)N=C(c2ncccc2C(=O)O)NC1=O (centres unmarked) [imazapyr], the “outcome of herbicide treatment” value [2] was “killed”, the phytotoxicity [3] was 20-43% and the “Mean Phytotoxicity Index (0-50)” value [4] was 5. For the same compound, the “outcome of herbicide treatment” value ([5]; BTK112, 160 gr/ha at V4) was “killed”, the “Mean Phytotoxicity Index (PI, 0-9)” value ([5]; in vivo) was 9 and the “outcome of herbicide treatment” value [6] was “killed”. For the same compound, the “Phytotoxicity Index (0-50)” value [7] was “greater than 35”, the “Mean Phytotoxicity Index (PI, 0-9)” value [8] was 0.2 and the “outcome of herbicide treatment” value [8] was “resistance level similar to that observed in the resistant line GM40”. For the same compound, the “Phytotoxicity Index (0-9)” value ([9]; 0.5x (40 g ai/ha)) was 0, the “plant height, % of untreated” value ([9]; 0.5x (40 g ai/ha)) was 100.0% and the “Phytotoxicity Index (0-9)” value ([9]; 1x (80 g ai/ha)) was 0. For the same compound, the “plant height, % of untreated” value ([9]; 1x (80 g ai/ha)) was 100.0%, the “plant height, % of untreated” value ([9]; 3x (240 g ai/ha)) was 50.0% and the “Phytotoxicity Index (0-9)” value ([10]; 0.5x (40 g ai/ha)) was 0.5. For the same compound, the “Phytotoxicity Index (0-9)” value ([10]; 1x (80 g ai/ha)) was 0.5, the “biomass accumulation, % of untreated” value ([10]; 1x (80 g ai/ha)) was 100.0% and the “Phytotoxicity Index (0-9)” value ([10]; 2x (160 g ai/ha)) was 0.5. For the same compound, the “Phytotoxicity Index (0-9)” value ([10]; 3x (240 g ai/ha)) was 0.5, the “Phytotoxicity Index (0-9)” value ([10]; 4x (320 g ai/ha)) was 0.5 and the “Phytotoxicity Index (0-9)” value ([10]; 5x (400 g ai/ha)) was 0.6. The “Phytotoxicity Index (0-9)” value ([10]; 6x (480 g ai/ha)) was 1.0, the “Phytotoxicity Index (0-9)” value ([11]; 0.5x (40 g ai/ha)) was 0 and the “Phytotoxicity Index (0-9)” value ([11]; 1x (80 g ai/ha)) was 0. For the same compound, the “Phytotoxicity Index (0-9)” value ([12]; 0.5x (40 g ai/ha)) was 0.0, the “plant height, % of untreated” value ([12]; 0.5x (40 g ai/ha)) was 100.0% and the “Phytotoxicity Index (0-9)” value ([12]; 1x (80 g ai/ha)) was 0.0. The “Phytotoxicity Index (0-9)” value ([12]; 2x (160 g ai/ha)) was 0.0, the “plant height, % of untreated” value ([12]; 2x (160 g ai/ha)) was 100.0% and the “Phytotoxicity Index (0-9)” value ([12]; 3x (240 g ai/ha)) was 0.0. For the same compound, the “plant height, % of untreated” value ([12]; 3x (240 g ai/ha)) was 100.0%, the “Phytotoxicity Index (0-9)” value ([12]; 4x (320 g ai/ha)) was 0.0 and the “Phytotoxicity Index (0-9)” value ([12]; 5x (400 g ai/ha)) was 0.2. For the same compound, the “Phytotoxicity Index (0-9)” value ([12]; 6x (480 g ai/ha)) was 0.0, the “Phytotoxicity Index (0-9)” value ([13]; 0.5x (40 g ai/ha)) was 0 and the “Phytotoxicity Index (0-9)” value ([13]; 1x (80 g ai/ha)) was 0. The “Phytotoxicity Index (0-9)” value ([14]; 0.5x (40 g ai/ha)) was 0, the “Phytotoxicity Index (0-9)” value ([14]; 1x (80 g ai/ha)) was 0 and the “Phytotoxicity Index (0-9)” value ([14]; 4x (320 g ai/ha)) was 8.0. For the same compound, the “Phytotoxicity Index (0-9)” value ([14]; 6x (480 g ai/ha)) was 9.0, the “Mean Phytotoxicity Index (PI, 0-9)” value [15] was 0.5 and the “outcome of herbicide treatment” value [15] was “resistance level similar to that observed in the resistant line GM40”. For the same compound, the “Phytotoxicity Index (0-50)” value [16] was “less than 11.7”, the “outcome of herbicide treatment” value [17] was “killed” and the “Mean Phytotoxicity Index (PI, 0-9)” value [18] was 0.2. The “outcome of herbicide treatment” value [18] was “resistance level similar to that observed in the resistant line GM40”, the “AHAS activity, % of untreated control” value [19] was 60% and the “outcome of herbicide treatment” value ([20]; OB712, 160 gr/ha at V4) was “killed”. The “Mean Phytotoxicity Index (PI, 0-9)” value ([20]; in vivo) was 9.
